## Antibody variant affinities, Ab-14 heavy chain, assay B

Antigen: PDVDLGDISGINAS, a 14-residue peptide of the SARS-CoV-2 spike HR2 region.

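The variants were designed computationally from a first round of random CDR variants and then made and measured. Several design methods are mixed in this list. The scFvs were displayed on barcoded MATa yeast, the peptide on MATalpha yeast. Pairs that bind mate more often; barcode pairs of the diploids are counted by sequencing. Read counts were normalised to the haploid input and turned into Kd by a linear fit to BCL2-family pairs of known affinity, for each replicate. There are six technical replicates.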

Parent: Ab-14, a human scFv built as VH, a 15-residue (Gly4Ser)3 linker, VL. Only the CDRs of the heavy chain vary.
VH: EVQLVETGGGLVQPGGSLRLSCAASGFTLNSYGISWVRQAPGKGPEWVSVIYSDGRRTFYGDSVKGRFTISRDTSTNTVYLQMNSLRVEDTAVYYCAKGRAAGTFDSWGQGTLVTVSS
VL: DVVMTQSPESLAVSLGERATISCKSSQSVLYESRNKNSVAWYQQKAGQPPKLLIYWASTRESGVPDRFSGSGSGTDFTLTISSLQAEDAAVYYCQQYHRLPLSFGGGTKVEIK

Each variant is given by its three heavy chain CDRs, as the data file delimits them; those of the parent are GFTLNSYGIS, VIYSDGRRTFYGDSVK, GRAAGTFDS.
Values are log10 of the apparent Kd in nM; lower means stronger binding.
Replicates are averaged; those with no signal do not enter the mean.
A pair that was not seen in any replicate is written "nd"; this usually means weak binding, but a binder can also be missed.
Entries are sorted by rising average, undetected variants last.
Empty control strains, which show no peptide, gave a signal in 1% of pairings with all heavy chain designs; the median was 2.08 and 95% of these signals were weaker than 0.84. No background was subtracted. For each scFv, signals with the empty controls are counted beside the result.
The authors' rule: three or more of the six replicates give a measured affinity, fewer mean a poor binder.
Values of this round are not directly comparable with the first-round values of the same sequences.

| mean, log10 nM | seen in | signal with controls | CDR-H1 | CDR-H2 | CDR-H3 |
|---|---|---|---|---|---|
| -0.83 | 6/6 | 0/18 | GFDLNEYGIS | VIYADGRRTFYADSVK | GEIAGTFNV |
| -0.67 | 6/6 | 1/18 | GFDLNEYGIS | VIYADGKRTAYVDSVK | GNTAGTFDV |
| -0.65 | 6/6 | 0/18 | GFNLNEYGIS | VIYADGQRTFYADSVK | GEAAGTFDS |
| -0.53 | 6/6 | 0/18 | GFDLNEYGIS | VIYADGVRTAYADKVK | GNVAGTFDM |
| -0.45 | 6/6 | 0/18 | GFDLNEYGIS | VIYADGSRTAYADDVK | GNVAGTFDM |
| -0.39 | 6/6 | 0/18 | GFNLDEYGIS | VIYADGMRTAYTDSVK | GNVAGTFDL |
| -0.35 | 6/6 | 0/18 | GFDLDEYGIS | VIYADGKRTAYADSVK | GNTAGTFDT |
| -0.34 | 6/6 | 0/18 | GFDLNEYGIS | VIYADGSRTAYADSVK | GVNAGTFDV |
| -0.30 | 6/6 | 0/18 | GFSLNSYGIS | VIYSDGKRTFYADSVK | GREAGTFDS |
| -0.30 | 6/6 | 0/18 | GFDINEYGIS | VIYADGRRTFYTDSVK | GNNAGTFDS |
| -0.24 | 6/6 | 0/18 | GFDLNEYGIS | VIYADGRRTMYADSVK | GQLAGTFDV |
| -0.24 | 6/6 | 0/18 | GFTLNSYGIS | VIYSDGRRTFYADSVK | GREAGTFDS |
| -0.21 | 6/6 | 0/18 | GFTLDEYGIS | VIYADGKRTFYTDSVK | GGNAGTFDV |
| -0.17 | 6/6 | 0/18 | GFDLNEYGIS | VIYADGMRTAYSDKVK | GEVAGTFDL |
| -0.15 | 6/6 | 0/18 | GFDLDEYGIS | VIYADGMRTAYSDSVK | GENAGTFDA |
| -0.14 | 6/6 | 0/18 | GFDLDEYGIS | VIYADGRRTAYADKVK | GNNAGTFDV |
| -0.05 | 6/6 | 0/18 | GFDLEEYGIS | VIYADGMRTFYADKVK | GENAGTFDI |
| 0.17 | 6/6 | 0/18 | GFGLNSYGIS | VIYSDGRRTFYGDSVK | GNTAGTFDS |
| 0.26 | 6/6 | 2/18 | GFDLNEYGIS | VIYADGRRTFYADSVK | GHVAGTFVQ |
| 0.31 | 6/6 | 0/18 | GFDLNSYGIS | VIYSDGRRTFYGDNVK | GNAAGTFDS |
| 0.56 | 6/6 | 0/18 | GFNLNTYGIS | VIYSDGRRTFYGDSVK | GRTAGTFDS |
| 0.61 | 6/6 | 1/18 | GFELNSYGIS | VIYSDGRRTFYIDDVK | GRTAGTFDS |
| 0.86 | 5/6 | 1/18 | GFELNTYGIS | VIYSDGRRTMYGDSVK | GRQAGTFDS |
| 0.89 | 6/6 | 0/18 | GFELNSYGIS | VIYSDGRRTFYQDDVK | GRTAGTFDS |
| 0.92 | 1/6 | 0/18 | GFTLNSYGIS | VIYSDGRRTFYMDKVR | GRAAGTFWS |
| 0.95 | 6/6 | 0/18 | GFTLNEYGIS | VIYSDGRRTFYTDSVK | GMFAGTFDS |
| 0.99 | 6/6 | 1/18 | GFKLNSYGIS | VIYSDGRRTFYHDSVK | GQLAGTFDS |
| 1.01 | 5/6 | 0/18 | GFSLNSYGIS | VIYSDGRRTFYADSVK | GHEAGTFDS |
| 1.20 | 6/6 | 1/18 | GFELNSYGIS | VIYSDGRRTFYGDRVK | GRTAGTFDS |
| 1.21 | 4/6 | 0/18 | GFTLNSYGIS | VIYSDGRRTFYGDSVK | GRVAGTFPS |
| 1.30 | 6/6 | 0/18 | GFDLDEYGIS | VIYADGMRTSYSDSVK | GENAGTFDV |
| 1.32 | 6/6 | 0/18 | GFYLNEYGIS | VIYSDGRRTFYGDSVK | GRTAGTFDS |
| 1.50 | 6/6 | 0/18 | GFGLNSYGIS | VIYSDGRRTFYQDSVK | GKTAGTFDS |
| 1.76 | 6/6 | 0/18 | GFQLNEYGIS | VIYSDGRRTFYVDSVK | GRHAGTFDS |
| 2.03 | 2/6 | 0/18 | GFTLNMYGIS | VIYSDGRRTDYSDSVK | GRAFGTFDS |
| 2.55 | 1/6 | 0/18 | GFTLNSYGIS | VIYSDGQRTFYTDSVK | GHAAGTFDS |
| 3.04 | 1/6 | 4/18 | GFKIDEYGIS | VIYADGIRRQYADNVK | GYTDDAFDM |
| 3.49 | 1/6 | 1/18 | GFSFDEYGIS | VIYADGKRSFYANTVK | GNKDMAFDI |
| 3.75 | 1/6 | 2/18 | GFSLNEYGIS | VIYSDGRRTFYGDSVK | GRAAETFDQ |
| nd | 0/6 | 0/18 | GETLNSYGIS | VIYSDGRRTFYGDSFS | VRPAGTFES |
| nd | 0/6 | 0/18 | GFTLNSYGIS | VIYSDGRRTFYIDAVK | GQEAGTFDS |
| nd | 0/6 | 0/18 | NFTLDSYGIS | VMYSDGRRTFWGDSVK | GEAAGTALS |
| nd | 0/6 | 1/18 | GFDLNSYGIS | VIYSDGRRTFYGDSVK | GKRAGTFES |
| nd | 0/6 | 0/18 | DFTLNSYGIS | VIYSDRRRTFYTDSVK | GYAAGTFDS |
| nd | 0/6 | 0/18 | GFSLDEYGIS | VIYADGVRKSYMESVK | GNGKGTLFA |
| nd | 0/6 | 0/18 | GFDLDEYGIS | VIYADGMRSAYLDSFK | GIYGNGLWF |
| nd | 0/6 | 0/18 | GFTLESYGIS | VIYADGRRTFYGDRVK | GRAAGTFKS |
| nd | 0/6 | 0/18 | GNDLNEYGIS | VIYADGSRTSYQEKVK | GLVGGMLAV |
| nd | 0/6 | 0/18 | KFTLNSYGIS | VIYSDGRRTFYLDSVK | GSAAGTFDS |
| nd | 0/6 | 0/18 | GFDLNEYGIS | VIYADGRRTAYADDVK | GENAGTFDV |

The opening 4 entries, copied out:

| CDR-H1 | CDR-H2 | CDR-H3 | mean, log10 nM | seen in | signal with controls |
|---|---|---|---|---|---|
| GFDLNEYGIS | VIYADGRRTFYADSVK | GEIAGTFNV | -0.83 | 6/6 | 0/18 |
| GFDLNEYGIS | VIYADGKRTAYVDSVK | GNTAGTFDV | -0.67 | 6/6 | 1/18 |
| GFNLNEYGIS | VIYADGQRTFYADSVK | GEAAGTFDS | -0.65 | 6/6 | 0/18 |
| GFDLNEYGIS | VIYADGVRTAYADKVK | GNVAGTFDM | -0.53 | 6/6 | 0/18 |

Source: Li et al. 2023 (doi:10.1038/s41467-023-39022-2), MIT Lincoln Laboratory and A-Alpha Bio; data file from the FLAb repository.